The values below come from patent US20240269252A1, “COMPOSITIONS FOR INDUCING AN IMMUNE RESPONSE” (President and Fellows of Harvard College, priority 2017, published 2024).

This data set is described as follows: Biomolecule release quantification: incorporation efficiency and release kinetics of CpG ODN, GM-CSF and antigen from cryogel vaccines. In kind it is physicochemical.

“RMFPNAPYL (Arg-Met-Phe-Pro-Asn-Ala-Pro-Tyr-Leu) [WT-1126-134]” registered an encapsulation efficiency (encapsulated in vaccine cryogel by cryo-polymerization) of 75%. For the same sequence, the “burst release of loaded antigen” value (from vaccine cryogel, over the first two days, in vitro) came to 3.3%. Moreover, the “amount released after the burst release” value (over a period of 10 days after the burst release) was roughly 4 µg.
